# Laboratory results taken from PMC8157854, “Radiosynthesis and Evaluation of Talazoparib and Its Derivatives as PARP-1-Targeting Agents” (Biomedicines, 2021).
# The chains behind the UniProt entries cited, without tags or fusion partners.
# UniProt P09874, whole entry: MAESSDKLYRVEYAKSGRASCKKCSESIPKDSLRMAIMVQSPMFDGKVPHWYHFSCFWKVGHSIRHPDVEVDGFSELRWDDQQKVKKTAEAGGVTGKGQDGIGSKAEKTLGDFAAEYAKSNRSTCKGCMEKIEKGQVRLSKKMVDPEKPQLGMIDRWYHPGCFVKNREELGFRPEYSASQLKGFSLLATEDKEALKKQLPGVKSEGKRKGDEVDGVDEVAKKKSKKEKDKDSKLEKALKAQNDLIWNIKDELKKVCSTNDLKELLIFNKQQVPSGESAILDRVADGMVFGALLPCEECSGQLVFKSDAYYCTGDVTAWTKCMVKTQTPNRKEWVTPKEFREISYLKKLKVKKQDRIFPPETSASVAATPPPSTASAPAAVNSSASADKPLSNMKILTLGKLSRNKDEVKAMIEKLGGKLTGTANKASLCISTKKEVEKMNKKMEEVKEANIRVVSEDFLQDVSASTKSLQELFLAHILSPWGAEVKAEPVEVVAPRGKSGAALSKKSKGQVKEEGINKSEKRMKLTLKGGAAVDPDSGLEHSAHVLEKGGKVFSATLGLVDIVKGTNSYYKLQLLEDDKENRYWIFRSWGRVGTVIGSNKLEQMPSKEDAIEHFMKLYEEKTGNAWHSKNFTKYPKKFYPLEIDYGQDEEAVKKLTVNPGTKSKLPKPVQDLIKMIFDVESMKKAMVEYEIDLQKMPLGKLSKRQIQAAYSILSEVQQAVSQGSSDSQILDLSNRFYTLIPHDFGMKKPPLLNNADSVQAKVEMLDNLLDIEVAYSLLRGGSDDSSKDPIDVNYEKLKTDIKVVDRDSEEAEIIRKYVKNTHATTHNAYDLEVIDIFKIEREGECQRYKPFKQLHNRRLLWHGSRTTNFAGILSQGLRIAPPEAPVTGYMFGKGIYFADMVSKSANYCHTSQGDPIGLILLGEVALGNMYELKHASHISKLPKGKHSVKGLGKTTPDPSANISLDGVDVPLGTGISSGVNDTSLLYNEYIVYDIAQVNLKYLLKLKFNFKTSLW
# Biological target: PARP-1 (Homo sapiens, UniProt P09874)
# Test: Radioligand cell uptake saturation analysis of [3H]WC-DZ in U251MG cells
# Type: binding
# Settings: Mean ± SEM, n = 3
structure (smiles),measurement,setting,value
[3H]c1ccc(-c2nc3cccc4c3n2CCNC4=O)cc1,Hill coefficient nH,Hill plot,1.07 ± 0.18
same,Bmax (binding density),Scatchard analysis,2382 ± 318 fmol/mg protein
